The text below walks through data of ChEMBL document CHEMBL4406884, “An anthrone-based Kv7.2/7.3 channel blocker with improved properties for the investigation of psychiatric and neurodegenerative disorders” (Bioorg Med Chem Lett, 2019).

Converted amounts (≈) assume the structure as drawn.

A short description of data set [1]: Kinetic solubility in […] % DMSO/water at 3.2 uM to 100 uM incubated for 18 hrs by spectrometry. The settings on record: 2.5 % DMSO/water; read-out: Kinetic_solubility. Type of data set: physicochemical.
The next data set deals with HepG2. The settings on record: human, hepg2, 18 h.
For another data set, the system named is HEK293. The settings on record: human, hek293, 18 h.

For `O=C1c2ccccc2C(Cc2c(F)cncc2F)(Cc2c(F)cncc2F)c2ccccc21`, in data set [1], the solubility kinetic at 18 h is 27 µM (≈ 12.1 µg/mL). In addition, the CC50 amounted to 114 µM in the data set on HepG2 and 79 µM in the data set with HEK293.
